Assay: xn = mol fraction of the nth substance listed
Settings: Liquid, Vibrating tube method

CCCCOCCCC [dibutyl ether] + CCCCO
mass density [kg/m3]
Settings	x1 = 0.1553	x1 = 0.3249	x1 = 0.4979	x1 = 0.6748	x1 = 0.8501
293.15 K, 100 kPa	800	791.5	784.1	777.8	772.4
293.15 K, 10000 kPa	807.6	799	791.9	785.8	780.6
293.15 K, 20000 kPa	814.4	805.8	799.1	793.1	788
293.15 K, 30000 kPa	820.6	812.6	805.5	799.7	794.8
293.15 K, 40000 kPa	826.4	818.2	811.7	806	801.1
293.15 K, 50000 kPa	831.9	823.8	817.4	811.7	807
293.15 K, 60000 kPa	837	829	822.6	817.2	812.4
293.15 K, 70000 kPa	841.9	833.9	827.8	822.3	817.7
293.15 K, 80000 kPa	846.7	838.8	832.6	827.3	822.7
293.15 K, 90000 kPa	851	843.2	837.1	831.9	827.4
293.15 K, 100000 kPa	855.5	847.8	841.8	836.6	832.1
293.15 K, 110000 kPa	859.4	851.8	845.9	840.7	836.3
293.15 K, 120000 kPa	863.4	855.8	850	844.8	840.5
293.15 K, 130000 kPa	867.2	859.7	854	848.8	844.5
293.15 K, 140000 kPa	870.9	863.4	857.7	852.6	848.3
313.15 K, 100 kPa	783.9	775	767.1	760.6	755
313.15 K, 10000 kPa	792	783.2	775.8	769.5	764.2
313.15 K, 20000 kPa	799.3	790.8	783.7	777.5	772.4
313.15 K, 30000 kPa	806.3	797.9	791	785	780
313.15 K, 40000 kPa	812.5	804.3	797.6	791.8	786.9
313.15 K, 50000 kPa	818.5	810.4	803.9	798.2	793.4
313.15 K, 60000 kPa	824	816.1	809.7	804.1	799.4
313.15 K, 70000 kPa	829.4	821.6	815.4	809.8	805.2
313.15 K, 80000 kPa	834.3	826.6	820.5	815	810.5
313.15 K, 90000 kPa	839	831.5	825.4	820	815.6
313.15 K, 100000 kPa	843.4	836	830	824.7	820.3
313.15 K, 110000 kPa	847.8	840.5	834.5	829.3	824.9
313.15 K, 120000 kPa	852	844.8	839	833.7	829.4
313.15 K, 130000 kPa	856	848.8	843	837.9	833.6
313.15 K, 140000 kPa	859.9	852.9	847.1	842	837.8
333.15 K, 100 kPa	767.7	758.2	749.9	743.2	737.4
333.15 K, 10000 kPa	776.6	767.6	759.8	753.4	747.8
333.15 K, 20000 kPa	784.7	776.1	768.5	762.5	757.1
333.15 K, 30000 kPa	792.2	783.8	776.5	770.6	765.4
333.15 K, 40000 kPa	799	790.9	783.8	778	773
333.15 K, 50000 kPa	805.4	797.5	790.5	784.9	780
333.15 K, 60000 kPa	811.3	803.6	796.7	791.3	786.4
333.15 K, 70000 kPa	816.8	809.2	802.5	797.2	792.4
333.15 K, 80000 kPa	822.2	814.7	808.2	802.9	798.2
333.15 K, 90000 kPa	827.5	820.1	813.7	808.5	803.8
333.15 K, 100000 kPa	832.2	824.9	818.6	813.5	808.9
333.15 K, 110000 kPa	836.7	829.5	823.1	818.1	813.7
333.15 K, 120000 kPa	840.6	833.4	827.2	822.2	817.8
333.15 K, 130000 kPa	845.1	838	831.8	826.8	822.5
333.15 K, 140000 kPa	849	842	–	–	–
